The target in one assay is full length mouse TREX1 (Mus musculus, UniProt Q91XB0). Description: mTREX1 Biochemical Assay (fluorescence, dsDNA substrate degradation). The following applies: read-out: mTREX1 IC50.
A further assay has as its target full length human TREX1 (Homo sapiens, UniProt Q9NSU2). Description: hTREX1 Biochemical Assay (fluorescence, dsDNA substrate degradation). To be noted: read-out: hTREX1 IC50.
The target in assay [1] is human TREX2 (residues M44-A279) (Homo sapiens, UniProt Q9BQ50). Description: hTREX2 Biochemical Assay (fluorescence, dsDNA substrate degradation). The following applies: biochemical selectivity for hTREX1 vs hTREX2. On the procedure: Degradation of the dsDNA liberates free fluorophore to produce a fluorescent signal. Specifically, 7.5 μL of N-terminally His-Tev tagged human TREX2 (residues M44-A279, expressed in E. coli and purified in house) in reaction buffer (50 mM Tris, 150 mM NaCl, 2 mM DTT, 0.1 mg/mL BSA, 0.01% (w/v) Tween-20, 5 mM MgCl2, pH 7.4) was added to a 384-well Black ProxiPlate Plus (PerkinElmer) which already contained compound (150 nL) at varying concentrations as a 10 point dose-response in DMSO. The plate was incubated at 25° C. for 4 hours. Reactions were initiated by adding 7.5 μL of dsDNA substrate (Strand A: 5′ TEX615/GCT AGG CAG 3′; Strand B: 5′ CTG CCT AGC/IAbRQSp (IDT)) in reaction buffer. Final concentrations were 50 pM TREX2, 60 nM dsDNA substrate in reaction buffer with 1.0% DMSO (v/v). After 18 hours at 25° C., reactions were quenched by the addition of 2 μL of 500 mM EDTA. Final concentrations in the quenched reaction mixture were 44 pM TREX2, 53 nM DNA and 59 mM EDTA in a volume of 17 μL. After a 5-minute incubation at room temperature, plates were read in an EnVision plate reader (PerkinElmer) measuring fluorescence at 615 nm following excitation w/570 nm light. IC50 values were calculated by comparing the measured fluorescence at 615 nm relative to control wells pre-quenched w/stop buffer (100% inhibition) and no inhibitor (0% inhibition) controls as using non-linear least square four parameter fits and either Genedata or GraphPad Prism (GraphPad Software, Inc.).

Protein sequences, listed by entry. Tags and fused reporters are not part of them.
UniProt Q91XB0, whole entry: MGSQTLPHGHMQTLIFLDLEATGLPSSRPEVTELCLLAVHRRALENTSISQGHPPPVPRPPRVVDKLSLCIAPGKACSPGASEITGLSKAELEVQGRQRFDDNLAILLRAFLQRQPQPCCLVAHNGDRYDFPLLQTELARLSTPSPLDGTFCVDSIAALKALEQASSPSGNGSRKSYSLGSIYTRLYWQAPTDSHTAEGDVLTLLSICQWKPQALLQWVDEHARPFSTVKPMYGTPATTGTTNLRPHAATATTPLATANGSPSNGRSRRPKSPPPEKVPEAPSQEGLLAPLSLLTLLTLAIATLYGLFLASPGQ
UniProt Q9NSU2, whole entry: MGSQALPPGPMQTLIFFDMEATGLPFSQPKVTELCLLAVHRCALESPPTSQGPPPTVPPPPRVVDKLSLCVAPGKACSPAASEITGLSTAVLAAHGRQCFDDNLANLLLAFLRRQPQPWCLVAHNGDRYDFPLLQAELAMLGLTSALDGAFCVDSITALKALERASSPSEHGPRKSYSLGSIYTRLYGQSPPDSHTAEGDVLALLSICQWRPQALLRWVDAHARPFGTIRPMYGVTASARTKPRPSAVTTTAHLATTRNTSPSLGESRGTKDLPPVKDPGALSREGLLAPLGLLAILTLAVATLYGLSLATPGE
UniProt Q9BQ50, whole entry: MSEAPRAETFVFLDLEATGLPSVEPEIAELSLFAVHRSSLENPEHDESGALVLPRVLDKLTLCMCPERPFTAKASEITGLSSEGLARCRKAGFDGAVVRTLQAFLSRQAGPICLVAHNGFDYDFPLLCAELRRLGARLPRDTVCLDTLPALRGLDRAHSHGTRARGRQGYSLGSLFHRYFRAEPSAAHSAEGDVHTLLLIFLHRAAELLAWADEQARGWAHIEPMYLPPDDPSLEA

pIC50: −log10 of the molar value.

What is called pIC50 is −log10 of the IC50, conventionally taken in molar units.

`CC(c1nc(C(=O)Nc2cnoc2)c(O)c(=O)n1C)C(c1cc(F)ccc1C#N)c1cn(C)nc1C#N` (stereo not shown): the pIC50 on full length mouse TREX1 and at full length human TREX1 was below 8.00 throughout.

Turning to `COC(C)(C)Cn1cc(C(c2ccccc2Cl)C(C)c2nc(C(=O)Nc3cnoc3)c(O)c(=O)n2C)cn1` (single isomer, unassigned), the pIC50 on full length mouse TREX1 and on full length human TREX1 was below 8.00 in each case.

In the case of `CC(c1nc(C(=O)Nc2cnoc2)c(O)c(=O)n1C)C(c1cnn(C)c1)c1cc(C(=O)N(C)C)ccc1C#N` (single isomer, unassigned) [Example 75 D1E1], the pIC50 is 8.00 to 9.00 on full length mouse TREX1 and above 9.00 at full length human TREX1.

For `CC(c1nc(C(=O)Nc2cnoc2)c(O)c(=O)n1C)C(c1cnn(C)c1)c1cc(C(=O)N(C)C)ccc1C#N` (single isomer, unassigned) [Example 75 D1E2], the negative-log IC50 (pIC50) at full length mouse TREX1 and at full length human TREX1 was below 8.00 in each case.

Take `CC(c1nc(C(=O)Nc2cnoc2)c(O)c(=O)n1C)C(c1cnn(C)c1)c1cc(C(=O)N(C)C)ccc1C#N` (single isomer, unassigned) [Example 75 D2E1]: the pIC50 on full length mouse TREX1 and at full length human TREX1 was below 8.00 in each case.

For the compound `CC(c1nc(C(=O)Nc2cnoc2)c(O)c(=O)n1C)C(c1cnn(C)c1)c1cc(C(=O)N(C)C)ccc1C#N` (single isomer, unassigned) [Example 75 D2E2], the pIC50 on full length mouse TREX1 and on full length human TREX1 was below 8.00 each time.

Take `CC(c1nc(C(=O)Nc2cnoc2)c(O)c(=O)n1C)C(c1ccccc1C#N)c1cn(C)nc1C(F)(F)F` (single isomer, unassigned) [Example 90 D1E1]: the negative logarithm of the IC50 (pIC50) on full length mouse TREX1 was 8.00 to 9.00; at full length human TREX1, above 9.00. The “hTREX1 vs hTREX2 selectivity” value in assay [1] was “C (C = >50 fold selective for hTREX1)”.

For `CC(c1nc(C(=O)Nc2cnoc2)c(O)c(=O)n1C)C(c1ccccc1C#N)c1cn(C)nc1C(F)(F)F` (single isomer, unassigned) [Example 90 D1E2], the pIC50 at full length mouse TREX1 and at full length human TREX1 was below 8.00 in each case. Moreover, the “hTREX1 vs hTREX2 selectivity” value in assay [1] is recorded as “A (A = <25 fold selective for hTREX1)”.

Consider `CC(c1nc(C(=O)Nc2cnoc2)c(O)c(=O)n1C)C(c1ccccc1C#N)c1cn(C)nc1C(F)(F)F` (single isomer, unassigned) [Example 90 D2E1], for which the pIC50 at full length mouse TREX1 and on full length human TREX1 was below 8.00 in each case. In assay [1], the “hTREX1 vs hTREX2 selectivity” value was “B (B = 25 to 50-fold selective for hTREX1)”.

In the case of `CC(c1nc(C(=O)Nc2cnoc2)c(O)c(=O)n1C)C(c1ccccc1C#N)c1cn(C)nc1C(F)(F)F` (single isomer, unassigned) [Example 90 D2E2], the figures for the pIC50 on full length mouse TREX1 and at full length human TREX1 were below 8.00 and 8.00 to 9.00, respectively. For the same compound, the “hTREX1 vs hTREX2 selectivity” value in assay [1] is recorded as “B (B = 25 to 50-fold selective for hTREX1)”.

On to `COCCn1cc(C(c2cc(F)ccc2Cl)C(C)c2nc(C(=O)Nc3cnoc3)c(O)c(=O)n2C)c(C)n1` (single isomer, unassigned) [Example 107 D1E1], for which the pIC50 was 8.00 to 9.00 on full length mouse TREX1 and above 9.00 on full length human TREX1. In addition, the “hTREX1 vs hTREX2 selectivity” value in assay [1] was “C (C = >50 fold selective for hTREX1)”.

In the case of `COCCn1cc(C(c2cc(F)ccc2Cl)C(C)c2nc(C(=O)Nc3cnoc3)c(O)c(=O)n2C)c(C)n1` (single isomer, unassigned) [Example 107 D1E2], the pIC50 at full length mouse TREX1 and on full length human TREX1 was below 8.00 each time. The “hTREX1 vs hTREX2 selectivity” value in assay [1] was “A (A = <25 fold selective for hTREX1)”.

With `COCCn1cc(C(c2cc(F)ccc2Cl)C(C)c2nc(C(=O)Nc3cnoc3)c(O)c(=O)n2C)c(C)n1` (single isomer, unassigned) [Example 107 D2E1], the negative-log IC50 (pIC50) on full length mouse TREX1 and at full length human TREX1 was below 8.00 throughout. Further, the “hTREX1 vs hTREX2 selectivity” value in assay [1] is “A (A = <25 fold selective for hTREX1)”.

In the case of `COCCn1cc(C(c2cc(F)ccc2Cl)C(C)c2nc(C(=O)Nc3cnoc3)c(O)c(=O)n2C)c(C)n1` (single isomer, unassigned) [Example 107 D2E2], the pIC50 at full length mouse TREX1 and at full length human TREX1 was below 8.00 in each case.

With `Cc1cc(C(c2cc(F)ccc2Cl)C(C)c2nc(C(=O)Nc3cnoc3)c(O)c(=O)n2C)nn1C` (single isomer, unassigned) [Example 114 D1E1], the pIC50 on full length mouse TREX1 was below 8.00; at full length human TREX1, 8.00 to 9.00. Besides, the “hTREX1 vs hTREX2 selectivity” value in assay [1] was “B (B = 25 to 50-fold selective for hTREX1)”.

As to `Cc1cc(C(c2cc(F)ccc2Cl)C(C)c2nc(C(=O)Nc3cnoc3)c(O)c(=O)n2C)nn1C` (single isomer, unassigned) [Example 114 D1E2], the pIC50 on full length mouse TREX1 and on full length human TREX1 was below 8.00 each time. The “hTREX1 vs hTREX2 selectivity” value in assay [1] is “A (A = <25 fold selective for hTREX1)”.

Take `Cc1cc(C(c2cc(F)ccc2Cl)C(C)c2nc(C(=O)Nc3cnoc3)c(O)c(=O)n2C)nn1C` (single isomer, unassigned) [Example 114 D2E1]: the pIC50 at full length mouse TREX1 is below 8.00; at full length human TREX1 it was 8.00 to 9.00. The “hTREX1 vs hTREX2 selectivity” value in assay [1] was “B (B = 25 to 50-fold selective for hTREX1)”.

For `Cc1cc(C(c2cc(F)ccc2Cl)C(C)c2nc(C(=O)Nc3cnoc3)c(O)c(=O)n2C)nn1C` (single isomer, unassigned) [Example 114 D2E2], the pIC50 at full length mouse TREX1 and on full length human TREX1 was below 8.00 each time.

For `Cc1ncc(C(c2cc(F)ccc2Cl)C(C)c2nc(C(=O)Nc3cnoc3)c(O)c(=O)n2C)nc1C` (single isomer, unassigned) [Example 126 D1E1], the figures for the pIC50 at full length mouse TREX1 and at full length human TREX1 were below 8.00 and 8.00 to 9.00, respectively. The “hTREX1 vs hTREX2 selectivity” value in assay [1] was “A (A = <25 fold selective for hTREX1)”.

Turning to `Cc1ncc(C(c2cc(F)ccc2Cl)C(C)c2nc(C(=O)Nc3cnoc3)c(O)c(=O)n2C)nc1C` (single isomer, unassigned) [Example 126 D1E2], the pIC50 on full length mouse TREX1 is 8.00 to 9.00; on full length human TREX1, above 9.00. The “hTREX1 vs hTREX2 selectivity” value in assay [1] was “C (C = >50 fold selective for hTREX1)”.

On to `Cc1ncc(C(c2cc(F)ccc2Cl)C(C)c2nc(C(=O)Nc3cnoc3)c(O)c(=O)n2C)nc1C` (single isomer, unassigned) [Example 126 D2E1], for which the results for the pIC50 on full length mouse TREX1 and at full length human TREX1 were below 8.00 and 8.00 to 9.00, respectively. Further, the “hTREX1 vs hTREX2 selectivity” value in assay [1] was “A (A = <25 fold selective for hTREX1)”.

With `Cc1ncc(C(c2cc(F)ccc2Cl)C(C)c2nc(C(=O)Nc3cnoc3)c(O)c(=O)n2C)nc1C` (single isomer, unassigned) [Example 126 D2E2], the pIC50 on full length mouse TREX1 and at full length human TREX1 was below 8.00 each time.

As for `CC(c1nc(C(=O)Nc2cnoc2)c(O)c(=O)n1C)C(c1ccccc1C#N)c1cn(C(C)C)nc1F` (single isomer, unassigned) [Example 128 D1E1], the pIC50 on full length mouse TREX1 and at full length human TREX1 was above 9.00 in each case. The “hTREX1 vs hTREX2 selectivity” value in assay [1] is on record as “B (B = 25 to 50-fold selective for hTREX1)”.

With `CC(c1nc(C(=O)Nc2cnoc2)c(O)c(=O)n1C)C(c1ccccc1C#N)c1cn(C(C)C)nc1F` (single isomer, unassigned) [Example 128 D1E2], the pIC50 on full length mouse TREX1 and at full length human TREX1 was below 8.00 each time. Further, in assay [1], the “hTREX1 vs hTREX2 selectivity” value is recorded as “A (A = <25 fold selective for hTREX1)”.

`CC(c1nc(C(=O)Nc2cnoc2)c(O)c(=O)n1C)C(c1cc(F)ccc1C#N)c1cn(C)nc1F` (single isomer, unassigned) [Example 129 D1E1]: the pIC50 on full length mouse TREX1 and at full length human TREX1 was below 8.00 in each case. In assay [1], the “hTREX1 vs hTREX2 selectivity” value is listed as “A (A = <25 fold selective for hTREX1)”.

Consider `CC(c1nc(C(=O)Nc2cnoc2)c(O)c(=O)n1C)C(c1cc(F)ccc1C#N)c1cn(C)nc1F` (single isomer, unassigned) [Example 129 D1E2], for which the pIC50 on full length mouse TREX1 and at full length human TREX1 was above 9.00 throughout. In assay [1], the “hTREX1 vs hTREX2 selectivity” value is “C (C = >50 fold selective for hTREX1)”.

As for `Cn1cc(C(c2ccccc2C#N)C(F)(F)c2nc(C(=O)Nc3cnoc3)c(O)c(=O)n2C)cn1` (single isomer, unassigned) [Example 148 D1], the values for the pIC50 on full length mouse TREX1 and at full length human TREX1 were below 8.00 and 8.00 to 9.00, respectively. The “hTREX1 vs hTREX2 selectivity” value in assay [1] was “C (C = >50 fold selective for hTREX1)”.

On to `Cn1cc(C(c2ccccc2C#N)C(F)(F)c2nc(C(=O)Nc3cnoc3)c(O)c(=O)n2C)cn1` (single isomer, unassigned) [Example 148 D2], for which the pIC50 at full length mouse TREX1 and at full length human TREX1 was below 8.00 each time.

Take `CC(c1nc(C(=O)Nc2cnoc2)c(O)c(=O)n1C(C)C)C(c1cnn(C)c1)c1ccccc1C#N` (single isomer, unassigned) [Example 150 D1E1]: the pIC50 at full length mouse TREX1 and on full length human TREX1 was below 8.00 each time. Also, the “hTREX1 vs hTREX2 selectivity” value in assay [1] is reported as “A (A = <25 fold selective for hTREX1)”.

Regarding `CC(c1nc(C(=O)Nc2cnoc2)c(O)c(=O)n1C(C)C)C(c1cnn(C)c1)c1ccccc1C#N` (single isomer, unassigned) [Example 150 D2E2], the pIC50 on full length mouse TREX1 and on full length human TREX1 was below 8.00 each time.
